# Laboratory results from publication PMC6209313 (Molecular Pharmaceutics, 2018).
# Assay: Maximum drug loading capacity
# Assay type: physicochemical
# Conditions: 37 °C, mean (sd)
smiles,measurement,setting,value
COC1=CC(=O)C[C@@H](C)[C@]12Oc1c(Cl)c(OC)cc(OC)c1C2=O [Griseofulvin],maximum drug loading capacity (loading),IIIA-LC,2.8 (0.1) mg/g
same,maximum drug loading capacity (loading),IIIB-MC,8.1 (0.0) mg/g
same,maximum drug loading capacity (loading),IV,12.4 (0.5) mg/g
